Holding throughout (assay type): physicochemical
Data set [1] can be described thus: Copper level of albumin samples, semi-quantitative ICP-MS. The procedure: Approximately 0.2 g of sample from each sample was accurately weighed into the micro-insert vessels of the Milestone Ethos UP microwave system (Analytix, UK). Each sample was prepared in triplicate. The highest purity grade chemicals were used throughout (Ultra High Purity Acids & Reagents, Romil, UK). Sample digestion was performed using 1 mL nitric acid (HNO3), and 0.2 mL of hydro peroxide. Vessels were closed after the addition of the chemicals and digested using the following program: • Temperature ramped to 180° C. over 10 minutes, • Hold at 180° C. for 30 minutes. • Cool to room temperature
The digest solutions were transferred into 50 mL polyethylene tubes, and made up to 20 g with ultra-pure water 18 MQcm (megaohm-cm) (Elga Water, UK). […] Two microwave batches were run each contained 3 reagent blanks and 1 replicate of a quality control (QC) material. Additionally, two samples per batch were selected at random and spiked with a multi-element standard.
Semi-quantitative analysis of the digested samples was performed using an Agilent 7700 ICP-MS (Agilent Technologies, UK). The samples were introduced into the plasma using a glass nebuliser (Micromist) and a Scott double pass spray chamber cooled at 2° C. Analysis was performed in pumping mode using the instrument in collision mode with helium as cell gas to reduce potential interferences. The instrument was optimised and tuned for maximum sensitivity. Semi-quantitative analysis is a screening method which uses relative response factors and a multi-element standard solution containing 0.05 μg·g^−1 of Li, Al, Co, Y, Cd, Ce, Tl and U and with Si, Ca and P at 0.3 μg·g^−1 (Romil, UK) which was prepared in 5% HNO3 to match the sample acid concentration.
The Limit of Quantification (LOQ) was evaluated using at least 6 measurements of the reagent blank in the analytical run. The LOQ was calculated as the mean blank concentration plus 10 times the standard deviation of the blank measurements. All sample results were corrected for the individual dilution factors and the procedural blank. The concentrations for the samples are reported in μg·g^−1 for the sample as received for all elements except Na, K and P which are reported in % (m/m). The results relate only to the items tested.

Data set [2] is described as follows: Free cysteine of albumins, Ellman's assay (DTNB). The procedure: The amount of free cysteine was determined by using the Ellman's reagent, DTNB ((5,5′-Dithiobis(2-nitrobenzoic acid-Sigma, Cat Number: D8130). A stock solution of DTNB was prepared at 4 mg/mL in assay buffer (0.1 M phosphate buffer, pH 8.0). The reagent was prepared on the day of the measurement and was protected from light.
For the standard curve, a 1.5 mM stock solution of L-Cysteine (Sigma #30089; MW=121.165 g/mol) was prepared in water on the same day of the assay.
From this stock, the Cysteine standards solutions were prepared by dilution in assay buffer at the following concentrations: 1.5, 1.25, 1.0, 0.75, 0.5, 0.25, 0 mM.
Assay solutions were prepared as follows: • 500 μL assay buffer • 50 μL standard or sample • 10 μL Ellman's reagent
And then were incubated in the dark for 10 minutes before measuring the absorbance at 412 nm.
The molar ratio [Cys]/[Albumin] was calculated for each sample. Values of the relative ratio (relative to the highest amount of free cysteine sample) are also reported.

The test system of data set [3] is AAV2. Description: Temperature incubation (25° C. then 40° C.) of AAV2 with albumins from different sources, DLS. The note with it: for Overall performance in temperature incubation of AAV2: both temperatures (25°, 40° C.), both buffers, compared to rice-derived and serum-derived albumin; for Hydrodynamic radius over time with AAV2: AAV2 9.2E+12 vp/mL in Tris-Citrate+Na2SO4, albumin 5 mg/mL, 25° C. then 40° C. As for the experimental part:
(§1) After some rounds of formulation scouting, we selected the following conditions: • Tris-Citrate or TC=150 mM Tris, 50 mM Citrate, 25 mM MgCl2, PH=6 • Tris-Citrate+Na2SO4 or TCN=150 mM Tris, 50 mM Citrate, 25 mM MgCl2, PH=6, 50 mM Na2SO4
(§2) In all the experiments the albumin concentration was 5 mg/mL.
The incubation at 25° C. and 40° C. was carried out both at low (vp/mL~E+11) and high (vp/mL~E+13) AAV2 concentrations. In either case, the solutions were prepared by diluting the AAV2 stock (Vigene, vg/mL=1.06E+13, vp/mL~5.52E+13, phosphate buffer saline with 0.001% Poloxamer 188) in the target buffer.
Dynamic Light Scattering (DLS-Dyna Pro Plate reader II, Wyatt, serial #: 221-WPR2) was then used to follow the aggregation over time. To perform the experiment, 25 μL of each sample were transferred to a 384 Aurora well plate (Wyatt). Each formulation was analysed in triplicate. The wells were sealed with 20 μL of paraffin oil to prevent evaporation during the experiment. Before measurement, the plate was spun at 2000×g for 2 minutes to remove air bubbles. The changes in hydrodynamic radii (RH—cumulant analysis, see also Example 8) following incubation at 25° C., followed by the incubation at 40° C., were monitored over time.

Data set [4] concerns AAV2. Description: Backgrounded Membrane Imaging of AAV2 with albumins after 4° C. storage or 4 freeze-thaw cycles. To be noted: for Stabilisation of AAV2 after 4 freeze-thaw cycles (ThT positive particles ECD ≥2 μm): both buffers; for Stabilising the AAV2 during storage at 4° C. (total and ThT positive particles): 4° C. for 2 months, BMI. The procedure:
as §1, §2
The samples for freeze-thaw (FT) and 4° C. storage experiments were prepared as described above, but only at high AAV2 concentration (vp/mL~E+13). Then the solutions were transferred into 0.5 mL Eppendorf® LoBind microcentrifuge tubes and these were, respectively, placed in an incubator (4° C. storage) or frozen at −20° C. These last solutions were then subsequently subjected to 4 cycles of freeze-thaw before measurement. The aggregation was measured by using Backgrounded Membrane Imaging (Aura system, Halo Labs, Burlingame, CA, USA). 50 μL of the samples, after storage for 2 months at 4° C. or after 4 freeze-thaw cycles, were spotted, without dilution, onto the membrane of Black Halo Labs plates (Halo Labs) suitable for fluorescence imaging. After imaging in Brightfield and Side Illumination Membrane Intensity (SIMI) the plates were removed from the instrument, a solution of the protein stain Thioflavin T (ThT) was added and incubated for 10 minutes. After the excess dye was removed, the fluorescence was acquired on the fluorescence channel (Ex 440/40 Em 500/40). The ThT stock was prepared by dissolving ~3 mg of ThT dry powder in 1 mL water. The solution was then filtered through a 0.22 μm syringe filter followed by measurement of the concentration by diluting the stock solution in ethanol and using an extinction coefficient of 26,620 M-1 cm-1 at 416 nm (Khurana et al, 2005). The number of particles with an Estimated Circular Diameter (ECD) ≥2 μm were reported as a measure of aggregation. We have also used the number of ThT fluorescent particles with an ECD ≥2 μm as a measure of amyloid-like protein aggregates. In some cases, we reported the number of particles with an ECD ≥2 μm as measured in brightfield subtracted to the ones in the same size range with a SIMI intensity higher than 10. This is named in the plots as: (Brightfield-SIMI). The rationale behind this treatment of the experimental data is that in this way, only protein aggregates are counted, eliminating non-protein particles from the scoring (e.g. due to environmental contamination). Indeed, non-protein aggregates are not flat on the membrane and are characterised by a high SIMI value. On the contrary, protein aggregates are flat on the membrane, with SIMI values around ~0±10. Therefore, by subtracting the SIMI particles from the ones counted in Brightfield, only the protein aggregates are considered.

A short description of data set [5]: Aggregation level of albumin stocks (SEC-HPLC % polymer, DLS). The note with it: DLS at 5 mg/ml in DPBS. The procedure: The aggregation level was quantified by SEC-HPLC as “percentage polymer” and qualitatively evaluated by Dynamic Light Scattering (DLS) via changes in the values of the hydrodynamic radius (RH) and polydispersity index (PD index). The polymer amount was measured by loading 20 to 40 mg/ml albumin on a TSK G3000SWXL GPC column (7.8 mm id×300 mm) equilibrated in 20 mM sodium phosphate (Fisher Chemicals), 100 mM sodium sulfate (Fisher Chemicals), 0.05% (w/v) sodium azide (Sigma Chemicals), pH 7.0. The flow rate was 1 mL/min, and the albumin were diluted from the stock into double distilled water. The percentage of albumin polymer in the sample was calculated using: • wherein:
The DLS measurements were done on a DynaPro™ Plate reader II (Wyatt, serial #: 221-WPR2−λ=826.150 nm). The albumin samples were diluted to 5 mg/ml in DPBS and then plated in triplicate in a 96-well Corning 3880 Half Area non-treated plate. Before measurement the plate was spun at 2000×g for 2 minutes to remove bubbles.
Background: Size exclusion chromatography separates by hydrodynamic size, large species first.

On to “Pichia 2: recombinant albumin produced in Pichia, supplier 2; believed to have approximately 4-amino acid N-terminal extension”, for which the “65 Cu (μg/g in sample as received)” value in data set [1] stood at 0.3472 µg/g.
Still for that read-out and setting: as for “Saccharomyces 2.3: recombinant human albumin produced in S. cerevisiae, source 2, batch 3”, the figure is 0.05297 µg/g.
Turning to “Saccharomyces 1.3: recombinant human albumin produced in S. cerevisiae, source 1, batch 3”, the “65 Cu (μg/g in sample as received)” value in data set [1] is 0 µg/g. Moreover, the “Free cysteine (mole Cys per mole protein), ranking” value in data set [2] is “higher in the ranking”.
As to “Pichia 1: recombinant albumin produced in Pichia, supplier 1”, in data set [1], the “65 Cu (μg/g in sample as received)” value came out at 0.1281 µg/g. For the same substance, the “Overall performance in temperature incubation of AAV2” value in the data set on AAV2 [3] is “performed better”. Further, the “Free cysteine (mole Cys per mole protein), ranking” value in data set [2] is “higher in the ranking”. Moreover, in the data set on AAV2 [4], the “Stabilisation of AAV2 after 4 freeze-thaw cycles (ThT positive particles ECD ≥2 μm)” value is “improved performance”; the “Stabilising the AAV2 during storage at 4° C. (total and ThT positive particles)” value was “performed the best”.
On to “Saccharomyces 3.2: recombinant human albumin produced in S. cerevisiae, source 3, batch 2 (expired batch)”, for which the “65 Cu (μg/g in sample as received)” value in data set [1] amounted to 0 µg/g.
Consider “Rice 2: recombinant albumin produced in rice”, for which the “65 Cu (μg/g in sample as received)” value in data set [1] was determined as 0.5763 µg/g.
Same read-out and setting: the value for “Saccharomyces 2.2: recombinant human albumin produced in S. cerevisiae, source 2, batch 2” was 0.04063 µg/g; that for “Saccharomyces 2.1: recombinant human albumin produced in S. cerevisiae, source 2, batch 1; not formulated with octanoate” was 0 µg/g.
With Serum Derived: A serum-derived albumin, the “65 Cu (μg/g in sample as received)” value in data set [1] came out at 0.2044 µg/g. Further, the “Hydrodynamic radius over time with AAV2” value in the data set on AAV2 [3] was “aggregated”. Also, the “Aggregation level of albumin stock (% polymer, RH)” value in data set [5] is recorded as “high amount of polymer”. For the same substance, the “Free cysteine (mole Cys per mole protein), ranking” value in data set [2] is recorded as “low in the ranking”.
Take “Saccharomyces 1.2: recombinant human albumin produced in S. cerevisiae, source 1, batch 2”: the “65 Cu (μg/g in sample as received)” value in data set [1] is 0 µg/g. In the data set on AAV2 [3], the “Hydrodynamic radius over time with AAV2” value was “did not change” and the “Overall performance in temperature incubation of AAV2” value is on record as “performed better”. In addition, the “Free cysteine (mole Cys per mole protein), ranking” value in data set [2] is given as “higher in the ranking”. In the data set on AAV2 [4], the “Stabilisation of AAV2 after 4 freeze-thaw cycles (ThT positive particles ECD ≥2 μm)” value is recorded as “improved performance”; the “Stabilising the AAV2 during storage at 4° C. (total and ThT positive particles)” value is on record as “performed the best”.
For the substance “Saccharomyces 3.1: recombinant human albumin produced in S. cerevisiae, source 3, batch 1 (expired batch)”, the “65 Cu (μg/g in sample as received)” value in data set [1] came out at 0 µg/g.
For “Rice 3: recombinant albumin produced in rice”, in data set [1], the “65 Cu (μg/g in sample as received)” value turned out to be 0.5729 µg/g. The “Hydrodynamic radius over time with AAV2” value with AAV2 [3] is “aggregated”. Also, the “Aggregation level of albumin stock (% polymer, RH)” value in data set [5] is “high levels of aggregates”. Besides, in data set [2], the “Free cysteine (mole Cys per mole protein), ranking” value is “low in the ranking”.
Take “Saccharomyces 1.1: recombinant human albumin (SEQ ID NO: 2) produced in S. cerevisiae, source 1, batch 1; formulated with octanoate”: the “65 Cu (μg/g in sample as received)” value in data set [1] came out at 0.03459 µg/g. Further, the “Free cysteine (mole Cys per mole protein), ranking” value in data set [2] is listed as “higher in the ranking”.

The values above are taken from patent US20260240766A1, “FORMULATIONS AND USES THEREOF” (Sartorius Albumedix Limited, priority 2023, published 2026).
